Measurements reported in article PMC8007834, “Anti-estrogenic and anti-aromatase activities of citrus peels major compounds in breast cancer” (Scientific Reports, 2021).

System: Aromatase
Experiment: Aromatase protein levels in EAC solid tumors (ELISA)
Details: ELISA on tumor homogenates, day 20; quercetin 100, naringenin 50, naringin 100 mg/kg i.p.

Question: How did the “aromatase levels in tumors, lower than positive control group” value turn out when `O=C1CC(c2ccc(O)cc2)Oc2cc(O)cc(O)c21` (stereo not shown) [C4, 5,7,4′-trihydroxy flavanone] was run?
Answer: The value was 62.43%.
